# According to patent US5972980A, “Method for treating and preventing inflammation and atherosclerosis” (Warner-Lambert Company, priority 1999, dated 1999):
# Molecular target: T1, rabbit reticulocyte 15-LO (Oryctolagus cuniculus, UniProt P12530)
# T1 construct: rabbit reticulocyte 15-LO; from tissue; host or cells: rabbit reticulocytes
# T1 sequence (P12530 1-663): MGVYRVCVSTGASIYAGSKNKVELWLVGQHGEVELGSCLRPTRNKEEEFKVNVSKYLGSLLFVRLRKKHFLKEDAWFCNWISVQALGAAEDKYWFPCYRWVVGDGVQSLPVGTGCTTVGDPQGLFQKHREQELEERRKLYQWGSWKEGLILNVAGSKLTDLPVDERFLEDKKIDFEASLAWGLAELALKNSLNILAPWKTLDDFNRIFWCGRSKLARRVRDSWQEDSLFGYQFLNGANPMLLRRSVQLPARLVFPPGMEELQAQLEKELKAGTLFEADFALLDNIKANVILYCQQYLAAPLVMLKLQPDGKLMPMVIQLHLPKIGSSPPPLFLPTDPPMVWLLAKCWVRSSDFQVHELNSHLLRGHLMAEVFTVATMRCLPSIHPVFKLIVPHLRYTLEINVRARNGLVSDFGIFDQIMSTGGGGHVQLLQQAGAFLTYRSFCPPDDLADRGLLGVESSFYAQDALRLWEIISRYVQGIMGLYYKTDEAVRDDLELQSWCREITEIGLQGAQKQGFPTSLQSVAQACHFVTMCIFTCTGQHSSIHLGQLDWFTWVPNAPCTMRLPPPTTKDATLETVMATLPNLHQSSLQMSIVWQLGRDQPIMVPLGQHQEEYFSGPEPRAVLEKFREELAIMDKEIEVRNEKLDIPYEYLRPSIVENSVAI
# Assay: 15-LO inhibition, rabbit reticulocyte 15-LO with linoleic acid substrate, HPLC method of Auerbach et al.
# Type: biochemical
# Procedure: Two in vitro assays were utilized, both utilizing rabbit reticulocyte 15-LO, and linoleic acid as substrate, to enzymatically produce a peroxide oxidation product known as 13(S)-HPODE. N-Benzoyl leucomethylene blue was utilized as a calorimetric reagent for detection and quantification of the peroxide formation. Also, HPLC was utilized to quantify the oxidation following incubation at 4° C. for 10 minutes.
structure (smiles),measurement,setting,value
"c1ccc2c(c1)SCc1c-2[nH]c2ccccc12 [Compound A, 6,11-dihydro[1]benzothiopyrano[4,3-b]-indole]",IC50,,1300 nM
same,inhibits 15-LO more potently than 5-LO,15-LO versus 5-LO,at least 100 times
